Measurements taken from patent US10287301B2 (Achillion Pharmaceuticals, Inc., priority 2015, dated 2019).
Like-named read-outs stand apart in the source and are kept apart here.

The chains behind the UniProt entries cited, without tags or fusion partners. Residues count along the entry.
UniProt P00746, 26-253: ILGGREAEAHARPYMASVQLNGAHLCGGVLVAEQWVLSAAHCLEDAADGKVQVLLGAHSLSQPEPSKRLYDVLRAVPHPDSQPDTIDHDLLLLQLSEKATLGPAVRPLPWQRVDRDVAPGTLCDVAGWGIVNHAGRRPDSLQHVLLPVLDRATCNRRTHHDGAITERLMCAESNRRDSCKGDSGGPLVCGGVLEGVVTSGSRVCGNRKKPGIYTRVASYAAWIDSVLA

Target: Human Factor D (Homo sapiens (Human), UniProt P00746)
Assay: Human Factor D Assay
Assay type: biochemical
Procedure: Human Factor D (purified from human serum, Complement Technology, Inc.) at 80 nM final concentration was incubated with test compound at various concentrations for 5 minutes at room temperature in 50 mM Tris, 1M NaCl, pH 7.5. A synthetic substrate Z-L-Lys-SBzl and DTNB (Ellman's reagent) are added to final concentrations of 100 μM each. […] IC50 values are calculated by nonlinear regression of complement Factor D reaction rates as a function of test compound concentration.

[1] = Table 3, Human Factor D 80 nM, substrate Z-L-Lys-SBzl, read-out: IC50 (Stars)

| Molecule | IC50 [1] [nM] | IC50 (read-out: IC50) [nM] |
| --- | --- | --- |
| CC(=O)c1nn(CC(=O)N2C[C@@H]3C[C@@H]3[C@H]2C(=O)Nc2cccc(Br)n2)c2ccc(-c3cnc(C)nc3)cc12 [Compound 371, (1S,2S,5R)-3-(2-(3-acetyl-5-(2-methylpyrimidin-5-yl)-1H-indazol-1-yl)acetyl)-N-(6-bromopyridin-2-yl)-3-azabicyclo[3.1.0] hexane-2-carboxamide] | < 1000 |  |
| CC(=O)c1nn(CC(=O)N2CC3CC3C2C(=O)Nc2cccc(Br)n2)c2ccc(-c3cnc(C)nc3)cc12 (centres unmarked) [Compound 369, 3-(2-(3-acetyl-5-(2-methylpyrimidin-5-yl)-1H-indazol-1-yl)acetyl)-N-(6-bromopyridin-2-yl)-3-azabicyclo[3.1.0] hexane-2-carboxamide] | < 1000 |  |
| CC(=O)c1nn(CC(=O)N2C[C@H]3C[C@H]3[C@H]2C(=O)Nc2cccc(Br)n2)c2ccc(-c3cnc(C)nc3)cc12 [Compound 413, (1R,2S,5S)-3-(2-(3-Acetyl-5-(2-methylpyrimidin-5-yl)-1H-indazol-1-yl)acetyl)-N-(6-bromopyridin-2-yl)-3-azabicyclo[3.1.0]hexane-2-carboxamide] | < 1000 |  |
| (2S,4R)-1-(2-(3-Acetyl-5-(2-methyl-[1,2,4]triazolo[1,5-a]pyridin-6-yl)-1H-indazol-1-yl)acetyl)-N-(6-bromopyridin-2-yl)-4-fluoropyrrolidine-2-carboxamide [Compound 661] |  | < 1000 |
| (2S,4R)-1-(2-(3-Acetyl-5-(2-(methoxymethyl)pyrimidin-5-yl)-1H-indazol-1-yl)acetyl)-N-(6-bromopyridin-2-yl)-4-fluoropyrrolidine-2-carboxamide [Compound 737] |  | < 1000 |
